For the experiment, the target named is Pfs48/45-D3 (C-terminal 6-cys domain of Pfs48/45) (Plasmodium falciparum 3D7 …, UniProt Q8I6T1). Put plainly: SPR. The conditions noted are these: both partners purified.

B1: 85RF45.1 monoclonal antibody (antibody, V domains shown)
VH: EVQLVESGGGLLQPGRSLKLSCVASGFTFNNYWMSWIRQAPGKGLEWIASISNIGGTIYYPDSVKGRFTISRDSAQNTLYLQMNSLRSEDTATYYCTRDLRMSDYFDYWGQGVMVTVSS
VL: QFVLSQPNSVSTNLGSTVKLSCKRSTGNIGSNYVSWYQHHEGRSPTTMIYRDDQRPDGVPDRFSGSIDRSSNSALLTIDNVQTEDEAAYFCHSYSTGMYIFGGGTKLTVL
notes: source: hybridoma cell line, purified using protein A/G
Molecule B1 yielded a Kd of 2.5 nM.

The term Kd denotes the equilibrium constant for the complex coming apart.

The values are drawn from PMC9509318 (Nature Communications, 2022).
